{"sequences": {"note": "By UniProt entry, the sequences of proteins in these tests, tags left out. Residues count along the entry.", "UniProt P01375, 77-233 limits assumed": "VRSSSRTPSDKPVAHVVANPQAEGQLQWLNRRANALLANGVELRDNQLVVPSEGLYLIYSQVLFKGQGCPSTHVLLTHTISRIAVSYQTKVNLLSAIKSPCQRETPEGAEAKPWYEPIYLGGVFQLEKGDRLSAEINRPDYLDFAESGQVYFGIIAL"}, "source": "patent US20090118127A1", "about": "(Janssen / Centocor, published 2009)", "key": {"[1]": {"target": "T1, human tumor necrosis factor alpha (TNFα) (human, UniProt P01375 77-233)", "T1 construct": "also called human TNFα", "experiment": "Biacore (SPR), 3 pairs of experiments"}, "[2]": {"target": "T1, human tumor necrosis factor alpha (TNFα)", "experiment": "ELISA, human TNFα coated on the plate, bound antibody detected with HRP anti-human kappa", "description": "Antibodies were assessed for binding to human TNFα using an ELISA format. Briefly, human TNFα was coated into the wells of a 96 well plate and candidate mAbs were incubated at various concentrations (20 to 0.2 ng/ml) and bound antibody was detected with HRP-labeled anti-human kappa light chain IgG (Jackson, ImmunoResearch, West Grove, Pa.)."}}}
{"binder": "REMICADE® brand of infliximab (antibody, V domains shown, also called cA2) VH: EVKLEESGGGLVQPGGSMKLSCVASGFIFSNHWMNWVRQSPEKGLEWVAEIRSKSINSATHYAESVKGRFTISRDDSKSAVYLQMTDLRTEDTGVYYCSRNYYGSTYDYWGQGTTLTVS VL: DILLTQSPAILSVSPGERVSFSCRASQFVGSSIHWYQQRTNGSPRLLIKYASESMSGIPSRFSGSGSGTDFTLSINTVESEDIADYYCQQSHSWPFTFGSGTNLEVK", "values": [{"measurement": "koff", "setting": "[1]", "value": "9.68e-05", "unit": "s⁻¹"}, {"measurement": "kon", "setting": "[1]", "value": 547000, "unit": "M⁻¹ s⁻¹"}, {"measurement": "EC50 (read off the curve)", "setting": "[2]", "value": "~3", "unit": "ng/mL"}]}
